# Bioassay records as filed in PubChem BioAssay.
# A selection: hits, their analogues and other compounds. The true share with any hit is near 1.7%.
# DYRK1A inh – Dyrk1A (rat) kinase inhibition; actives 0.43% (n = 310,000); inhibition, % at 12.5 µM; Q63470; ADP-Glo luminescence, NFATc1 peptide; AID 504441; in the data active = inhibition above about 50%
# CAL PDZ FP-1 – blocks peptide binding to the human CAL PDZ domain. Q9HD26. purified CAL PDZ, TMR-peptide fluorescence polarization, 1 h. inhibition, % at 24.9 µM. actives 0.92% (n = 300,000);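 active = mean inhibition of at least 30% with at least half of replicates also reaching 30%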
# dFosB act – activators of mouse delta FosB homodimer; P13346; purified delta FosB, TAMRA-CDK5 oligo fluorescence polarization; percent of positive-control signal above neutral wells; activation, % at 25 µM; actives 0.99% (n = 340,000); AID 493131;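 active = mean activation above about 17%, with every replicate also reaching it, limit read from the data, passing the limit was not always enough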
# CDK5 inh – inhibitors of human CDK5/p35 kinase. actives 0.01% (n = 330,000). inhibition, % at 10 µM. AID 488839. Q00535+Q15078. Recombinant CDK5/p35, ADP-Glo luminescence, 60 min;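 active = highest replicate inhibition of at least 50% and at least 75% of replicates reaching 50%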
# CAL PDZ FP-2 – inhibitors of human CAL PDZ peptide binding; Q9HD26; purified CAL PDZ, TMR-peptide fluorescence polarization, 1 h; inhibition, % at 20 µM; actives 0.02% (n = 330,000); AID 504414;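 active = highest replicate inhibition of at least 40%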
#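 Test system: purified CerCALP PDZ construct; Compound dosing: one concentration, 20 µM compound; Also added: TMR-labelled reporter peptide T*-PRC34 bound in PDZ groove; Read-out: inhibition from polarization loss; Controls: unlabelled peptide and DMSO controls; Signal: FP readout, S and P plane fluorescence; Incubation: 1 h at RT.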
# UUG fidelity – modulators of yeast start codon fidelity, primary screen, whole organism, S. cerevisiae, single point, plate reader. S. cerevisiae UUG-firefly luciferase reporter, luminescence/redox ratio. activity score, % at 18.7 µM. hit rate 0.13% among 350,000;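 active = replicate mean at a twofold rise or more, about +100% in these data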;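 also: firefly luciferase made from a UUG start codon reports start codon fidelity; reporter light over untreated wells divided by growth signal over untreated wells; some hits fall short of that in this replicate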
# Hits are given with their value; n = inactive; x = no result given.
SMILES,DYRK1A inh,CAL PDZ FP-1,dFosB act,CDK5 inh,CAL PDZ FP-2,UUG fidelity
C[C@@H]1CN([C@H](C)CO)C(=O)c2cc(-c3ccccc3F)cnc2O[C@@H]1CN(C)C(=O)NC1CCCC1,x,x,x,x,x,n
Cc1ccccc1S(=O)(=O)N1C[C@H]2[C@@H](c3ccccc31)[C@@H](CO)N2C(=O)CC1CC1,x,x,x,x,x,n
O=C(Nc1ccc2c(c1)OCO2)N[C@H]1C=C[C@@H](CC(=O)N2CCN(c3ccccc3)CC2)O[C@H]1CO,x,x,x,x,x,n
COc1cc(C2CC(=O)C3=C(C2)Nc2ncnn2C3c2cccs2)cc(OC)c1OC (configuration not stated),x,x,x,x,x,n
COc1cc(C2C=C(c3cccs3)Nc3ncnn32)cc(OC)c1OC (configuration not stated),n,33,n,n,n,x
Cc1ccc([N+](=O)[O-])cc1NC1CC(O)C(CO)O1 (configuration not stated),n,31,n,n,n,n
CC(=O)c1ccc(NC(=S)N(CCCN(C)C)Cc2ccccc2)cc1,n,58,n,n,n,n
CCCN(Cc1ccccc1)C(=S)Nc1ccc(C(C)=O)cc1,n,n,n,n,n,n
CC(C)CNC(=O)NC(=O)COC(=O)COc1ccc(Cl)cc1Cl,n,45,n,n,n,n
COc1cccc(C2NC(c3cccc(OC)c3O)C(C)C(=O)C2C)c1O (configuration not stated),n,x,n,n,n,n
CC1C(=O)C(C)C(c2cc(Cl)ccc2O)NC1c1cc(Cl)ccc1O (configuration not stated),n,n,20,n,n,n
CCC(=O)Nc1ccc2c(c1)C(=O)N(C)[C@@H]1CC[C@@H](CC(=O)N3CCc4ccccc4C3)O[C@@H]1CO2,x,x,x,x,x,n
CN1C(=O)c2cc(NC(=O)Cc3ccccc3)ccc2OC[C@@H]2O[C@@H](CC(=O)O)CC[C@@H]21,x,x,x,x,x,n
Cc1cc(NC(=O)c2cc(-c3ccccn3)nc3ccc(Br)cc23)no1,n,x,58,n,n,n
O=C(CCN1CCN(C/C=C/c2ccccc2)CC1)Nc1ccc(Cl)cc1,n,n,n,n,n,x
O=C(Nc1cccc(Cl)c1)N1CCN(C/C=C/c2ccccc2)CC1,n,48,n,n,n,x
O=C(Nc1ccc(C(F)(F)F)cc1)N[C@H]1CC[C@@H](CC(=O)N2CCCCC2)O[C@H]1CO,x,x,x,x,x,n
COCCN(C(=O)CSc1nc2ccccc2s1)c1c(N)n(Cc2ccccc2)c(=O)[nH]c1=O,n,99,n,n,n,n
COCCN(C(=O)COC(=O)/C=C/c1ccc2ccccc2n1)c1c(N)n(Cc2ccccc2)c(=O)[nH]c1=O,n,43,n,n,n,n
COCCN(C(=O)COC(=O)CCc1nc2ccccc2s1)c1c(N)n(Cc2ccccc2)c(=O)[nH]c1=O,n,n,n,n,n,n
CN1C(=O)c2cc(NS(=O)(=O)c3ccccc3Cl)ccc2OC[C@@H]2O[C@@H](CC(=O)O)CC[C@@H]21,x,x,x,x,x,n
CC(C)NC(=O)Nc1ccc2c(c1)C(=O)N([C@H](C)CO)C[C@@H](C)[C@@H](CN(C)Cc1ccc(C(=O)O)cc1)OCCCC[C@H](C)O2,x,x,x,x,x,n
C[C@@H]1CN([C@H](C)CO)C(=O)Cc2cc(NC(=O)C3CCCCC3)ccc2O[C@@H]1CN(C)CC1CC1,x,x,x,x,x,n
COc1cccc(N2CCN(CC(=O)NCc3ccccc3)CC2)c1,n,50,n,n,n,n
COc1ccc(CNC(=O)CN2CCN(c3ccccc3)CC2)cc1,n,n,n,n,n,n
SMILES,DYRK1A inh,CAL PDZ FP-1,dFosB act,CDK5 inh,CAL PDZ FP-2,UUG fidelity
COc1ccc(C=C2SC(=O)NC2=O)cc1OC,x,n,n,n,n,n
COc1ccc(/C=C2\SC(=N)N(c3ccc(F)cc3)C2=O)cc1OC,n,n,45,n,x,x
Cc1ccccc1NC(=O)c1nc(S(C)(=O)=O)ncc1Cl,n,86,n,n,n,n
CN(C)c1nc(NCc2ccccc2)nc(Oc2ccc(=O)[nH]n2)n1,n,40,n,n,n,n
CCN(CC)c1nc(Nc2ccccc2)nc(Oc2ccc(=O)[nH]n2)n1,n,x,n,n,n,n
COCC(=O)Nc1ccc2c(c1)C(=O)N(C)[C@@H]1CC[C@@H](CC(=O)NCC3CC3)O[C@H]1CO2,x,x,x,x,x,n
